According to ChEMBL document CHEMBL1134793, “Investigation of the selectivity of oxymorphone- and naltrexone-derived ligands via site-directed mutagenesis of opioid receptors: exploring the "address" recognition locus” (J Med Chem, 2001):
“And” between values parts separate entries of the source, which are not always exact repeats. Identical values can stand only once.

Protein sequences, listed by entry. Tags and fused reporters are not part of them.
UniProt P33535, whole entry: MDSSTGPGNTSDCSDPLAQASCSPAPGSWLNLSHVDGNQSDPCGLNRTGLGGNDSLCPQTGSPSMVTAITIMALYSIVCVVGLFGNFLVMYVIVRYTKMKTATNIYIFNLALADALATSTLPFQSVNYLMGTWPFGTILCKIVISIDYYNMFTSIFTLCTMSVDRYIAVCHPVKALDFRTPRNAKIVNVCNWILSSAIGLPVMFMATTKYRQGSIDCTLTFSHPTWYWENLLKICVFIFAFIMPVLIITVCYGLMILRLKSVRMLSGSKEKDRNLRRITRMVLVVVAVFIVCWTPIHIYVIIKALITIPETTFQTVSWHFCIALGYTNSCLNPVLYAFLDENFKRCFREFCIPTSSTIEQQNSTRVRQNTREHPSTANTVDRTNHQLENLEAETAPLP
UniProt P33535, whole entry W318A: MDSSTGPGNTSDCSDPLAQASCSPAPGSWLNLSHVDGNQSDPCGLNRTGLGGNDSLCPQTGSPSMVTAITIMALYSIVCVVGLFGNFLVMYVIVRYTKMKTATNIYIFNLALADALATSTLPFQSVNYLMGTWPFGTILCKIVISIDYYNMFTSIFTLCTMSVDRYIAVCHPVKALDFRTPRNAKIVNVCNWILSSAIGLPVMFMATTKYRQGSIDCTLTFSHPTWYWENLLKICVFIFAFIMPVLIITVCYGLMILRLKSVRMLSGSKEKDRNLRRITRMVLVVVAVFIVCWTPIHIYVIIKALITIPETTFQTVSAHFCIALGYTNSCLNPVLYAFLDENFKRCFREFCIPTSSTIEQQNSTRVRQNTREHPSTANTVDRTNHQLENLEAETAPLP
UniProt P33535, whole entry K303E: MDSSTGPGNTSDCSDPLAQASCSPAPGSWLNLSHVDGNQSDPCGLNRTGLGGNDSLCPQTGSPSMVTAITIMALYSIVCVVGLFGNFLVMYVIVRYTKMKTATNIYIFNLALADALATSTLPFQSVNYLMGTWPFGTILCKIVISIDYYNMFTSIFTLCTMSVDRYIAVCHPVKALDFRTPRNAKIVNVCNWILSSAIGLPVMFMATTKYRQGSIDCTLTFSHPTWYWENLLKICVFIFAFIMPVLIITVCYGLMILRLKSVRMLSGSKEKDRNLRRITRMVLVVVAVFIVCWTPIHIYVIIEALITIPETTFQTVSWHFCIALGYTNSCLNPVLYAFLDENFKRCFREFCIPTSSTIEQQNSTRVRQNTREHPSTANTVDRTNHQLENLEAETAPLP

Experiments:
Type in all cases: cell-based, HEK293
Mu-type opioid receptor [1] = target: Mu-type opioid receptor (Rattus norvegicus, UniProt P33535); test: Displacement of [3H]- diprenorphine from mu-receptor expressed in HEK 293 cells
Mu-type opioid receptor [2] = target: T1, Mu-type opioid receptor (Rattus norvegicus, UniProt P33535, W318A); test: Displacement of [3H]- diprenorphine from mu-W318A-receptor expressed in HEK 293
Mu-type opioid receptor [3] = target: Mu-type opioid receptor (Rattus norvegicus, UniProt P33535, K303E); test: Displacement of [3H]- diprenorphine from mu-K303E-receptor expressed in HEK 293
Mu-type opioid receptor [4] = target: T1, Mu-type opioid receptor; test: Displacement of [3H]- diprenorphine from mu-W318A-receptor expressed in HEK 293 cells

| Compound | Ki (Mu-type opioid receptor [1]) [nM] | Ki (Mu-type opioid receptor [2]) [nM] | Ki (Mu-type opioid receptor [3]) [nM] | Ki (Mu-type opioid receptor [4]) |
| --- | --- | --- | --- | --- |
| Oc1ccc2c3c1O[C@H]1c4[nH]c5ccccc5c4C[C@@]4(O)[C@@H](C2)N(CC2CC2)CC[C@]314 [NALTRINDOLE] | 34.4 | 0.36 | 13.5 | – |
| Oc1ccc2c3c1O[C@H]1c4[nH]c5c(c4C[C@@]4(O)[C@@H](C2)N(CC2CC2)CC[C@]314)C[C@@]1(O)[C@H]2Cc3ccc(O)c4c3[C@@]1(CCN2CC1CC1)[C@H]5O4 [NORBINALTORPHIMINE] | 56.6 | – | – | 0.39 nM and 0.22 nM |
